For the assay, the target named is Glutaminyl-peptide cyclotransferase (Homo sapiens, UniProt Q16769). Briefly: Spectrophotometic Assay: Spectrophotometic Assay: This novel assay was used to determine the kinetic parameters for most of the QC substrates. QC activity was analyzed spectrophotometrically using a continuous method, that was derived by adapting a previous discontinuous assay (Bateman, R.C.J. 1989 J Neurosci Methods 30, 23-28).

Sequences of proteins named here, by UniProt entry; tags and fusion partners are left off. A change or cut given only in a name is not applied to a line headed by its entry.
UniProt Q16769: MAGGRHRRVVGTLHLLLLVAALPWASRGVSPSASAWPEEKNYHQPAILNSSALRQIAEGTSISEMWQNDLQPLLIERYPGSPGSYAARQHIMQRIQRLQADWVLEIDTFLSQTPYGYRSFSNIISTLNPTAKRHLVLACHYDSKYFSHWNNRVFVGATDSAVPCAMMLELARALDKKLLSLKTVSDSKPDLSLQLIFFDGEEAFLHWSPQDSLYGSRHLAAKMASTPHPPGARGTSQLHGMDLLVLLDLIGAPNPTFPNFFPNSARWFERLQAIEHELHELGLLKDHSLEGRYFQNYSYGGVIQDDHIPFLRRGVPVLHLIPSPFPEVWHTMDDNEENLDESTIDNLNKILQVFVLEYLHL

Molecules are shown by their SMILES. pIC50: −log10 of the molar value. Bounds are passed on as bounds.

The compound `O=C1O[C@H](c2ccccc2)[C@H](c2ccccc2)N1c1ccc2nc[nH]c2c1` showed a pIC50 of more than 5.00.
Under `O=C1OC[C@H](c2ccc3c(c2)OCCO3)N1c1ccn2ccnc2c1` stands more than 5.00.

By pIC50 is commonly meant the negative decadic logarithm of the IC50, by convention in mol/L.

Values taken from ChEMBL document CHEMBL3638480, “Inhibitors” (2013).
